# Measurements published in PubChem BioAssay AID2517 (National Center for Advancing Translational Sciences (NCATS), 2010).
# Sequences of proteins named here, by UniProt entry; tags and fusion partners are left off.
# UniProt P27695, whole entry, looked up: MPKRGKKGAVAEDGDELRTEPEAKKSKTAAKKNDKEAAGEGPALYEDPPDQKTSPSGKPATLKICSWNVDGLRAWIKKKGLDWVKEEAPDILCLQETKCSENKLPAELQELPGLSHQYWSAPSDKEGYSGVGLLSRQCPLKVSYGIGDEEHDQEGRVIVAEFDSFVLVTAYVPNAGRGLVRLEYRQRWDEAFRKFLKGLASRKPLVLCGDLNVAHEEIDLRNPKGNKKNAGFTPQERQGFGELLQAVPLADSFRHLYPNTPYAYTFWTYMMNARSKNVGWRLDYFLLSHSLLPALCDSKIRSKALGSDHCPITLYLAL
# Where “and” joins values, the source holds several entries; their conditions need not be identical. Identical values can stand only once. This is a selection; strong and weak results do not stand in their true shares. Records with an inconclusive call do not appear. Calls of active or inactive are those of the source. The call rests on the fitted dose curve; in most records, active means well fitted inhibition curve with a large enough effect; inconclusive means small, poorly fitted or top-dose-only effect; inactive means no such curve, though single readings can be large or run the other way.
# Target: DNA repair nuclease/redox regulator APEX1 (Homo sapiens) (UniProt P27695)
# Assay: qHTS Assay for Inhibitors of the Human Apurinic/apyrimidinic Endonuclease 1 (APE1); further: nearly all actives have a fitted effect of over 55% in size
# Settings: recombinant APE1, TAMRA/BHQ-2 abasic DNA cleavage fluorescence
# From the text: The apurinic/apyrimidinic endonuclease APE1 is the primary mammalian enzyme responsible for the removal of abasic (or AP) sites in DNA and functions centrally in the base excision DNA repair (BER) pathway. […] Thus, targeting APE1 could improve the efficacy of current treatment paradigms by promoting selective sensitization or protection of diseased and normal cells, respectively.
# Inhibition of APE1 activity was screened by utilizing double-stranded short substrate containing tetrahydrofuran (THF) abasic site labeled with rhodamine-type fluorophore (TAMRA) at the 5'-end and with non-fluorescent Black Hole Quencher-2 (BHQ-2) at the opposing 3'-end. An increase in the fluorescence intensity due to incision of the abasic site by APE1 was used to measure the enzyme activity.
# NIH Chemical Genomics Center [NCGC]
# NIH Molecular Libraries Probe Centers Network [MLPCN] […]
# Three uL of enzyme solution (0.75 nM APE1 final concentration) was dispensed to 1536-well Greiner black solid bottom plates. […] The plates were immediately transferred into ViewLux High-throughput CCD imager (Perkin-Elmer) in order to measure the reaction progress in kinetic mode (three reads every 60 seconds) using 525 nm excitation and 598 nm emission fluorescence protocol. The fluorescence intensity difference between the third and the first time points was used to compute reaction progress. […]
# Potency means the concentration at half of the fitted maximal effect.
row,SMILES,Potency
1,O=c1c(O)c(-c2cc(O)c(O)c(O)c2)oc2cc(O)cc(O)c12,active: 282 nM and active: 316 nM and active: 238 nM
